# PMC12297036, “Development of a Potential Bone-Seeking Radiopharmaceutical by Sodium Pyrophosphate Labeled ^188Rhenium (^188Re-PYP) for Bone Pain Palliation” (Iranian Journal of Pharmaceutical Research : IJPR, 2025)
# Experiments:
# [1] = 37°C, up to 48 hours after complexation
# [2] = BALB/c mice
substance,measurement,setting,value
rhenium-^188-pyrophosphate [^188Re-PYP],stability in human serum (radiochemical purity),[1],90.86%
same,uptake in bone (maximum affinity),"[2]; bone, after 4 hours",2.24% ± 0.667%
same,maximum uptake for the kidney,[2]; kidney,1.53% ± 0.378%
same,maximum uptake for the liver,[2]; liver,0.18% ± 0.12%
same,maximum uptake for the spleen,[2]; spleen,0.13% ± 0.086%
